Molecular target: T1, HUMAN D1A RECEPTOR (Homo sapiens, UniProt P21728)
T1 construct: expressed in transfected cells; host or cells: COS-7 cells (transient), pCMV5-D1
Experiment: Competition binding against [^125 I]SCH 23982 in membranes of COS-7 cells transfected with pCMV5-D1
Conditions: [^125 I]SCH 23982 competition, COS-7 cell membranes, 1 hr, room temperature; read-out: Equilibrium dissociation constant (KD), human D1A receptor

By UniProt entry, the sequences of proteins in these tests, tags left out. Where a name states a change or a piece, a line headed by the entry shows the natural chain unless it says otherwise.
UniProt P21728, whole entry: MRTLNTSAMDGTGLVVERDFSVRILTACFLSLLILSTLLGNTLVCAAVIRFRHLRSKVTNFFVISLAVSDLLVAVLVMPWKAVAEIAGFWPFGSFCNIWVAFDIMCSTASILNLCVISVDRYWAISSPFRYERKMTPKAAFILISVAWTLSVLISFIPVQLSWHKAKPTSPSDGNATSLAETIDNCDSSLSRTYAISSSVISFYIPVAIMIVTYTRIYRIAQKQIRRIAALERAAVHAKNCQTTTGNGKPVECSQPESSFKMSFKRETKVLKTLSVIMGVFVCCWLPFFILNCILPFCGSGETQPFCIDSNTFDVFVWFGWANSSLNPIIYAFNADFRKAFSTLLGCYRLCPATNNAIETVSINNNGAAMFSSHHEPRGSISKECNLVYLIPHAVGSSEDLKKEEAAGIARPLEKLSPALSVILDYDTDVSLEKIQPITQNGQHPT

Row | Kd [nM] | Compound
1 | 24 | OCCN1CCN(CCCC2c3ccc(F)cc3Sc3ccc(C(F)(F)F)cc32)CC1 (stereo not drawn) [CIS-TEFLUTIXOL, cis-teflutixol]
2 | 0.65 | cis-piflutixol

From patent US5215915A, “Cloned gene encoding rat D1B dopamine receptor” (Duke University, priority 1991, dated 1993)
